AlphaSeq binding of Ab-14 light chain variants to a spike HR2 peptide

The measurements come from Li et al. 2023 (doi:10.1038/s41467-023-39022-2) through the FLAb antibody collection.

Target: peptide PDVDLGDISGINAS, taken from heptad repeat 2 (HR2) of SARS-CoV-2 spike.

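The starting antibody came from a phage panning campaign against this peptide. This is the validation round: designs drawn from the data on random variants, tested in the same kind of assay. Group labels follow the data file (Ctrl: baseline library sampled from a position-specific scoring matrix, with some repeated check sequences; Rand: our label for a block that the file lists under HC and that is probably the random mutants of the ten best first-round binders; GP: Gaussian process model; HC: hill climbing; Gen: genetic algorithm; Gibbs: Gibbs sampling; a sequence that several methods proposed may carry one label only). In AlphaSeq, yeast of one mating type display the scFv and yeast of the other type display the target. The frequency of each diploid, read from paired DNA barcodes, reflects how well the two displayed proteins bind. A regression on co-assayed BCL2-family reference pairs converts the normalised counts of each replicate to an apparent Kd. There are six technical replicates.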

The variants keep the heavy chain, the linker and the frameworks of Ab-14 (scFv order VH, three GGGGS repeats, VL).
VH: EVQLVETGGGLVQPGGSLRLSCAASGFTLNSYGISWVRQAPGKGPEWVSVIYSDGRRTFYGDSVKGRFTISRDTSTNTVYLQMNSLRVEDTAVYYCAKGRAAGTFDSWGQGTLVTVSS
VL: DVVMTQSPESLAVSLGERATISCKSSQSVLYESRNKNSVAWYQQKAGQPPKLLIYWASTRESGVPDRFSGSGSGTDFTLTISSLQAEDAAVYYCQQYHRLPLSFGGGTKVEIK

Positions count from residue 1 of the parent VL; Y31F puts F in place of Y.
Variants here have at most six changes.
Affinities are written as log10 Kd with Kd in nM; a lower number is a better binder.
The mean shown is taken over the replicates in which the pair was detected.
Where no diploid with the target was found in that replicate, the entry reads "n.d.": below detection, most likely a poor binder, though not proof of it.

| changes | group | log10 Kd, replicates | mean log10 Kd (nM) | signal with controls |
|---|---|---|---|---|
| Y31F+R34M | Ctrl | 2.09 1.16 1.29 1.13 1.91 1.79 | 1.56 | 1 of 18 (2.99) |
| S25A+S26E+S28G+V29D+W56G | GP_HC | -0.40 -0.26 -0.38 -0.56 -0.54 -0.13 | -0.38 | 2 of 18 (2.41) |
| S26D+S28G+W56G+T59Q+E61W | GP_HC | 0.08 0.15 0.30 0.13 0.04 0.38 | 0.18 | 3 of 18 (3.14) |
| K24Q+R34H | Ctrl | n.d. n.d. n.d. n.d. n.d. n.d. | n.d. | 0 of 18 |
| S26G+S28G+V29F+W56G+T59M | GP_Gibbs | -0.07 -0.04 -0.13 -0.22 0.23 0.19 | -0.01 | 0 of 18 |
| S25V+S26R+V29T+W56D+R99M | GP_HC | -0.06 -0.12 -0.35 -0.24 -0.31 -0.11 | -0.20 | 2 of 18 (2.60) |
| S28V+V29Y+L30Y+W56G | GP_HC | 0.22 0.15 -0.12 0.00 -0.07 0.03 | 0.04 | 0 of 18 |
| S38N+Q95V | Ctrl | n.d. n.d. n.d. n.d. n.d. n.d. | n.d. | 0 of 18 |
| S25L+S28L+W56E | GP_Gen | -0.43 -0.53 -0.63 -0.34 -0.46 -0.38 | -0.46 | 0 of 18 |
| S25L+S28H+L30E+W56N+E61L | GP_Gibbs | 0.48 0.45 0.02 0.17 0.14 0.30 | 0.26 | 1 of 18 (2.46) |
| N35S+K36S | Ctrl | n.d. 2.06 n.d. 3.24 n.d. 1.76 | 2.36 | 0 of 18 |
| S25F+Q27G+R34H | Ctrl | 1.23 2.10 1.17 1.94 2.16 1.05 | 1.61 | 0 of 18 |
| S28N+H98I | Ctrl | 0.75 0.45 0.33 0.06 0.82 0.91 | 0.56 | 0 of 18 |
| Q27I+V29G+L30E+N35M+W56E | GP_HC | -0.20 -0.05 -0.21 -0.25 -0.21 0.01 | -0.15 | 0 of 18 |
| K36D+H98P+R99H | Ctrl | n.d. n.d. n.d. n.d. n.d. n.d. | n.d. | 0 of 18 |
| S58Q+R99G+L100Y | Ctrl | n.d. n.d. 2.70 2.10 n.d. n.d. | 2.40 | 0 of 18 |
| W56E+T59Q+S62E | Ctrl | 1.54 1.51 0.53 0.41 0.56 0.44 | 0.83 | 1 of 18 (1.93) |
| S25C+L30K+Y31F+W56D | GP_HC | 0.59 0.81 0.50 1.16 0.40 1.41 | 0.81 | 3 of 18 (2.36) |
| S25L+V29M+W56N+E61L+S62M | GP_Gen | -0.01 -0.06 -0.34 -0.33 -0.17 -0.20 | -0.18 | 2 of 18 (2.82) |
| Q27P+R34E+W56N+E61M | GP_HC | 0.04 0.41 -0.59 0.61 -0.61 0.19 | 0.01 | 0 of 18 |
| V29F+K36Q+W56N | GP_HC | 0.03 0.15 -0.37 -0.19 -0.10 0.03 | -0.07 | 2 of 18 (2.91) |
| S25V+N37F+W56N | GP_Gen | -0.23 -0.45 -0.37 -0.44 -0.41 -0.31 | -0.37 | 1 of 18 (3.55) |
| S25Y+Q27K | Ctrl | n.d. n.d. n.d. n.d. 1.88 1.43 | 1.65 | 0 of 18 |
| S25I+V29F+W56D+S58N | GP_HC | 0.47 0.17 0.19 0.07 0.55 0.16 | 0.27 | 3 of 18 (2.32) |
| S25L+V29W+S33E+W56N+T59Q | GP_Gen | -0.21 -0.37 -0.27 -0.26 -0.32 -0.18 | -0.27 | 2 of 18 (2.97) |
| S25Q+K36T+W56D | GP_HC | -0.03 -0.25 -0.49 -0.42 -0.57 -0.20 | -0.33 | 3 of 18 (2.37) |
| S25L+S26P+W56N+T59Q+Q96D | GP_Gen | -0.17 0.01 -0.29 -0.37 -0.06 0.13 | -0.12 | 4 of 18 (3.23) |
| S26Q+Y31M+L100S | Ctrl | n.d. n.d. n.d. n.d. n.d. n.d. | n.d. | 0 of 18 |
| S26Q+Q27G+K36S+W56N+S62L+Q96D | GP_Gibbs | 0.68 0.34 0.45 0.43 0.38 0.33 | 0.44 | 0 of 18 |
| S25L+S38N+W56A+T59Q | GP_Gen | -0.33 -0.11 -0.22 -0.01 -0.38 -0.23 | -0.21 | 0 of 18 |
| Y97Q | Ctrl | n.d. n.d. n.d. n.d. n.d. n.d. | n.d. | 0 of 18 |
| S25F+S26I+Y31E+H98I | Ctrl | 1.71 0.79 1.08 1.13 1.36 1.37 | 1.24 | 0 of 18 |
| S25L+S26E+L30E+W56N | GP_Gen | 0.18 -0.10 -0.23 -0.05 -0.22 -0.02 | -0.07 | 0 of 18 |
| S25F+S28Q+N35T+W56N+T59W+L100H | Rand | 2.07 1.69 1.35 1.31 1.94 1.53 | 1.65 | 1 of 18 (5.20) |
| S25L+V29D+W56G+E61C | GP_Gen | 0.16 -0.03 0.22 0.01 -0.16 0.09 | 0.05 | 1 of 18 (1.07) |
| Q27P+S28V+R34M+W56N+E61M | GP_HC | 0.74 0.64 0.53 0.47 0.56 0.52 | 0.58 | 4 of 18 (2.67) |
| S25C+K36V+L100F | Ctrl | 2.50 n.d. n.d. 1.39 1.88 n.d. | 1.92 | 2 of 18 (1.78) |
| V29S+Y31A+Y97A+H98M+R99I | Ctrl | n.d. n.d. n.d. n.d. n.d. n.d. | n.d. | 0 of 18 |
| S25L+V29T+E32D+R34Q+W56Q | GP_HC | 0.28 -0.17 -0.05 -0.03 0.32 0.13 | 0.08 | 1 of 18 (2.42) |
| S25L+V29E+W56E+T59K | GP_Gen | -0.25 -0.40 -0.38 -0.39 -0.28 -0.16 | -0.31 | 0 of 18 |
| S25L+S26R+V29Y+W56Q+S103T | GP_HC | 0.00 -0.09 0.28 -0.17 -0.09 0.07 | 0.00 | 0 of 18 |
| Q27I+V29Y+R34E+W56H+T59Q | GP_HC | 0.25 0.15 -0.03 -0.12 0.12 0.31 | 0.12 | 2 of 18 (3.30) |

From the list, the first 6 with no signal in any replicate:

| changes | group | log10 Kd, replicates | mean log10 Kd (nM) | signal with controls |
|---|---|---|---|---|
| K24Q+R34H | Ctrl | n.d. n.d. n.d. n.d. n.d. n.d. | n.d. | 0 of 18 |
| S38N+Q95V | Ctrl | n.d. n.d. n.d. n.d. n.d. n.d. | n.d. | 0 of 18 |
| K36D+H98P+R99H | Ctrl | n.d. n.d. n.d. n.d. n.d. n.d. | n.d. | 0 of 18 |
| S26Q+Y31M+L100S | Ctrl | n.d. n.d. n.d. n.d. n.d. n.d. | n.d. | 0 of 18 |
| Y97Q | Ctrl | n.d. n.d. n.d. n.d. n.d. n.d. | n.d. | 0 of 18 |
| V29S+Y31A+Y97A+H98M+R99I | Ctrl | n.d. n.d. n.d. n.d. n.d. n.d. | n.d. | 0 of 18 |

In the paper, a design with two or fewer of six values counts as a poor binder.
Three control strains display no target. For all light chain designs, 4% of the pairings with them gave a signal, with a median of 2.64 and one signal in twenty below 1.59, so weak values seen in few replicates may be background. For each scFv, signals with the empty controls are counted beside the result, with their mean in brackets.
The parent sequence was in this pool as ten entries: three were never detected, three once, and four in most replicates, with averages from 0.34 to 2.37.
Values of this round are not directly comparable with the first-round values of the same sequences.